Experimental data from article PMC5447756, “Identification of Epigallocatechin-3- Gallate as an Inhibitor of Phosphoglycerate Mutase 1” (Frontiers in Pharmacology, 2017).

Amino acid sequences for entries named in this document (tags omitted). A change or cut given only in a name is not applied to a line headed by its entry.
UniProt P18669: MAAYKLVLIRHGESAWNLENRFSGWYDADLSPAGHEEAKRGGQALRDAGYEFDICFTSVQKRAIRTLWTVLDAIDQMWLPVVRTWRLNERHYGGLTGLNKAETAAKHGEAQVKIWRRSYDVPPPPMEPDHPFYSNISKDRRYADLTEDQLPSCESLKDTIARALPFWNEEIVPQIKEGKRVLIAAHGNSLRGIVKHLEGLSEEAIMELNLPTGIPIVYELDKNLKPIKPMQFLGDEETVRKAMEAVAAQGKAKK

Target: T1, PGAM1 (Homo sapiens, UniProt P18669)
T1 construct: His; made in house; host or cells: E. coli BL21
Assay: PGAM1 coupled enzymatic assay (PKM1/enolase, Kinase-Glo)
Type: biochemical
Settings: ratio of IC50 values

potency toward PGAM1 relative to PGMI-004A: over 30 times
Substance: (-)-Epigallocatechin-3-gallate [EGCG]
